Assay results published in PMC12537693, “3-Hydroxytyrosol as a phenolic cholinesterase inhibitor with antiamnesic activity: a multimethodological study of selected plant phenolics” (Frontiers in Pharmacology, 2025).

The chains behind the UniProt entries cited, without tags or fusion partners. Residues count along the entry.
UniProt O42275, 24-633 limits assumed: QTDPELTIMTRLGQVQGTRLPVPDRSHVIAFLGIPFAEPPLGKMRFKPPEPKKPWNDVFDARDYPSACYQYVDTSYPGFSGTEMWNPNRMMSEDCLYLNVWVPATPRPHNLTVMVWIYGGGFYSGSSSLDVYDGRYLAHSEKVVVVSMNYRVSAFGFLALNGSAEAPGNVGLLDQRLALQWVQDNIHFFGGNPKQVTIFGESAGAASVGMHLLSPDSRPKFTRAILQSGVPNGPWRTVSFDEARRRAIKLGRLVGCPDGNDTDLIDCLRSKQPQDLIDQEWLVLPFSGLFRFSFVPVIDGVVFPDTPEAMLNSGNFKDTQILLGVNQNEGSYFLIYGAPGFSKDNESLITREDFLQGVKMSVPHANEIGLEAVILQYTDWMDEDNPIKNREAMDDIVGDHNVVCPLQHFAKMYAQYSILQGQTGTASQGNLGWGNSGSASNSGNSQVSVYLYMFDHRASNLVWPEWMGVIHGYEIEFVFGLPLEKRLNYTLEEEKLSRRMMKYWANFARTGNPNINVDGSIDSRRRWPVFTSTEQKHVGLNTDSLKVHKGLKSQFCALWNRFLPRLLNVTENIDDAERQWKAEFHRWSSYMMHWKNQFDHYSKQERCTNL
UniProt P81908, whole entry, looked up: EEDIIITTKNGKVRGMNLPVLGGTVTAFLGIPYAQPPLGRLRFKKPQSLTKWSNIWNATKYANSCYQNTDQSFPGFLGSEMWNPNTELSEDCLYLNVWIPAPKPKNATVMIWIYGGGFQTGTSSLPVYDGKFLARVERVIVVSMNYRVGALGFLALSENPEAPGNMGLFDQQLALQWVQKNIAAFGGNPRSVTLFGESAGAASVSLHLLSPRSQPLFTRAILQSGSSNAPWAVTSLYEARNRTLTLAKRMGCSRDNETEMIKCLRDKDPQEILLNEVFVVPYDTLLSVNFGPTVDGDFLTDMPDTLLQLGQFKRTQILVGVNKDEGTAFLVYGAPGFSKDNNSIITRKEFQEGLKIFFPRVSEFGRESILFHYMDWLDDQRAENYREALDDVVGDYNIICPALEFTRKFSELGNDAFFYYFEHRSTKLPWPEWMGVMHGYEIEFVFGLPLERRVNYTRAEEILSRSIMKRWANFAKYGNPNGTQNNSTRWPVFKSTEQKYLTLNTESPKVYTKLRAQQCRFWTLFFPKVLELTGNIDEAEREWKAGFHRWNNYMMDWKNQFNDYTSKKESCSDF

Assays:
[1] = target: electric eel AChE (Electrophorus electricus, UniProt O42275); test: Microtiter assay for AChE inhibition (Ellman's method); type: biochemical; conditions: for IC50: read-out: IC50, AChE, ± SD
[2] = target: horse serum BChE (Equus caballus, UniProt P81908); test: Microtiter assay for BChE inhibition (Ellman's method); type: biochemical; conditions: for IC50: read-out: IC50, BChE, ± SD
[3] = test system: scopolamine-induced amnesic mice; test: Passive avoidance test in scopolamine-induced amnesic mice; type: in vivo

With `COc1cc2c(=O)c(-c3ccc(O)cc3)coc2cc1O` the “Enzyme inhibition (% ± SD) at 10 mM, AChE” value ([1]; n = 3) was “— (No inhibition)” and the “Enzyme inhibition (% ± SD) at 10 mM, BChE” value ([2]; n = 3) was 29.77 ± 0.01%.

For `O=c1c(O)c(-c2cc(O)c(O)c(O)c2)oc2cc(O)cc(O)c12`, the “Enzyme inhibition (% ± SD) at 10 mM, AChE” value ([1]; n = 3) was “— (No inhibition)”, the “Enzyme inhibition (% ± SD) at 10 mM, AChE” value ([1]; n = 3, listed as myricetin) was “no inhibition” and the “Enzyme inhibition (% ± SD) at 10 mM, BChE” value ([2]; n = 3) was “— (No inhibition)”. For the same compound, the “Enzyme inhibition (% ± SD) at 10 mM, BChE” value ([2]; n = 3, listed as myricetin) was “no inhibition”.

In the case of `O=c1c(O)c(-c2ccc(O)cc2O)oc2cc(O)cc(O)c12`, the “Enzyme inhibition (% ± SD) at 10 mM, AChE” value ([1]; n = 3) is reported as 9.72 ± 0.96% and the “Enzyme inhibition (% ± SD) at 10 mM, BChE” value ([2]; n = 3) is reported as 2.81 ± 3.83%.

`O=c1cc(-c2ccc(O)c(O)c2)oc2c([C@@H]3O[C@H](CO)[C@@H](O)[C@H](O)[C@H]3O)c(O)cc(O)c12` was tested, and the “Enzyme inhibition (% ± SD) at 10 mM, AChE” value ([1]; n = 3) was “— (No inhibition)” and the “Enzyme inhibition (% ± SD) at 10 mM, BChE” value ([2]; n = 3) was “— (No inhibition)”.

For `COc1cc(C(=O)O)ccc1O` [Vanillic acid], the “Enzyme inhibition (% ± SD) at 10 mM, AChE” value ([1]; n = 3) was “- ^b (No inhibition)”.

For `O=c1c(O)c(-c2ccc(O)c(O)c2)oc2cc(O)cc(O)c12` [Quercetin], the IC50 ([2]; n = 3) was 2.51 mM.

For `O=c1cc(-c2ccc(O)cc2)oc2c([C@@H]3O[C@H](CO)[C@@H](O)[C@H](O)[C@H]3O)c(O)cc(O)c12`, the “Enzyme inhibition (% ± SD) at 10 mM, AChE” value ([1]; n = 3) was 17.32 ± 2.77%.

For `O=c1c(O)c(-c2ccc(O)c(O)c2)oc2cc(O)ccc12` [Fisetin], the “Enzyme inhibition (% ± SD) at 10 mM, AChE” value ([1]; n = 3) was 96.21 ± 0.06 (IC50: 1.28 ± 1.28 mM) %.

`COc1cc(C(=O)O)cc(OC)c1O` was tested, and the “Enzyme inhibition (% ± SD) at 10 mM, AChE” value ([1]; n = 3) was 2.39 ± 4.18% and the “Enzyme inhibition (% ± SD) at 10 mM, BChE” value ([2]; n = 3) was 17.56 ± 4.24%.

For `Oc1ccc(-c2[o+]c3cc(O)cc(O)c3cc2O)cc1` [Pelargonidin], the “Enzyme inhibition (% ± SD) at 10 mM, AChE” value ([1]; n = 3) was 34.25 ± 0.50%.

For `C/C=C1/[C@H](O[C@@H]2O[C@H](CO)[C@@H](O)[C@H](O)[C@H]2O)OC=C(C(=O)OC)[C@H]1CC(=O)OCCc1ccc(O)c(O)c1`, the “Enzyme inhibition (% ± SD) at 10 mM, AChE” value ([1]; n = 3) was 84.10 ± 3.11%, the IC50 ([1]; n = 3) was 5.39 mM and the “Enzyme inhibition (% ± SD) at 10 mM, BChE” value ([2]; n = 3) was 90.54 ± 2.51%. For the same compound, the IC50 ([2]; n = 3) was 6.48 mM, the “Mean latency time (min) ± SEM (2nd day)” value ([3]; 20 mg/kg i.p., scopolamine 1 mg/kg i.p. 30 min later, 24 h after scopolamine, cutoff 9 min) was 7.68 ± 0.55 min and the “Mean latency time (min) ± SEM (1st day)” value ([3]; acquisition day, before treatment, group given 20 mg/kg i.p., n = 8) was 0.39 ± 0.07 min.

For `O=C(O)C=Cc1ccc(O)cc1`, the “Enzyme inhibition (% ± SD) at 10 mM, AChE” value ([1]; n = 3) was “— (No inhibition)” and the “Enzyme inhibition (% ± SD) at 10 mM, BChE” value ([2]; n = 3) was 5.15 ± 3.96%.

`O=c1c(-c2ccc(O)cc2)coc2cc(O)ccc12` was tested, and the “Enzyme inhibition (% ± SD) at 10 mM, BChE” value ([2]; n = 3) was 19.62 ± 7.10%.

For `O=C(O)/C=C/c1ccc(O)c(O)c1`, the “Enzyme inhibition (% ± SD) at 10 mM, BChE” value ([2]; n = 3) was 47.82 ± 2.75%.

In the case of `C[C@@H]1O[C@@H](O[C@H]2[C@H](Oc3cc(O)c4c(c3)O[C@H](c3ccc(O)cc3)CC4=O)O[C@H](CO)[C@@H](O)[C@@H]2O)[C@H](O)[C@H](O)[C@H]1O`, the “Enzyme inhibition (% ± SD) at 10 mM, AChE” value ([1]; n = 3) is reported as 4.27 ± 4.28% and the “Enzyme inhibition (% ± SD) at 10 mM, BChE” value ([2]; n = 3) is reported as 14.94 ± 0.13%.

In the case of `O=c1c(O[C@@H]2O[C@H](CO)[C@@H](O)[C@H](O)[C@H]2O)c(-c2ccc(O)c(O)c2)oc2cc(O)cc(O)c12`, the “Enzyme inhibition (% ± SD) at 10 mM, AChE” value ([1]; n = 3) is reported as 43.17 ± 1.65% and the “Enzyme inhibition (% ± SD) at 10 mM, BChE” value ([2]; n = 3) is reported as 31.77 ± 0.39%.

With `O=c1cc(-c2ccc(O)c(O)c2)oc2cc(O)cc(O)c12` [Luteolin] the “Enzyme inhibition (% ± SD) at 10 mM, AChE” value ([1]; n = 3) was “— (No inhibition)” and the “Enzyme inhibition (% ± SD) at 10 mM, AChE” value ([1]; n = 3, listed as luteolin) was “no inhibition”.

In the case of `O=C1c2c(O)cc(O)cc2OC(c2ccc(O)c(O)c2)C1O` (stereo not drawn), the “Enzyme inhibition (% ± SD) at 10 mM, AChE” value ([1]; n = 3) is reported as 50.43 ± 1.12%, the IC50 ([1]; n = 3) is reported as 7.18 mM and the “Enzyme inhibition (% ± SD) at 10 mM, BChE” value ([2]; n = 3) is reported as 14.36 ± 1.71%.
